Results taken from PMC3034772 (Pharmaceutical research, 2010).
Where two headings read alike, the source gives them in different places.

Experiments:
[1] = PAMPA; for Pm^7.4: pH 7.4
[2] = in vivo; cited from earlier work
[3] = mouse, in vivo; cited from earlier work

Compound | Pm^7.4 [1] | PS [2] | PS [3] | log PABL [1] | log Po [1] | log Ppara [1] | pKa (physchem)
CNCC[C@@H](Oc1ccccc1C)c1ccccc1 [Atomoxetine] | 79 | 407 10^−4 mLg^−1s^−1 | – | – | – | – | –
[D-Pen^2,5]-Enkephalin [DPDPE] | – | – | 1 10^−4 mLg^−1s^−1 | – | – | – | –
Cc1nc2n(c(=O)c1CCN1CCC(c3noc4cc(F)ccc34)CC1)CCCC2 [Risperidone] | 28 | – | – | −3.25 | −4.00 | −6.25 | 7.81
